Measured values as given in BindingDB's records for doi:10.1016/0024-3205(84)90540-x (Schering-Plough, 1984).

Protein sequences, listed by entry. Tags and fused reporters are not part of them.
UniProt P61169, whole entry: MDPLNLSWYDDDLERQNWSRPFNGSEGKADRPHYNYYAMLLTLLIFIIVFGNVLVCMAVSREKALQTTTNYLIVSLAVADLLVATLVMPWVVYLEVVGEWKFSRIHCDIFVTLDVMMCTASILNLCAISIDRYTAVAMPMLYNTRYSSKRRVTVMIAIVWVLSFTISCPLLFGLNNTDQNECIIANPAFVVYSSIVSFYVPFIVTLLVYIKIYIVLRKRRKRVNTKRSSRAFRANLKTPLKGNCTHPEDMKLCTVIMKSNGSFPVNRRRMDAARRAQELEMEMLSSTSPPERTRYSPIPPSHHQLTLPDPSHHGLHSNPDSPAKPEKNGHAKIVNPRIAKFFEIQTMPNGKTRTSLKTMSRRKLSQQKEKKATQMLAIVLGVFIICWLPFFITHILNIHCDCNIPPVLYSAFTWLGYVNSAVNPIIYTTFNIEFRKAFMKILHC

Biological target: D(2) dopamine receptor (Rattus norvegicus, UniProt P61169)

Row | SMILES | Ki [µM]
1 | CN1CCc2cccc3c2[C@H]1Cc1ccc(O)c(O)c1-3 [APOKYN] | 0.54
2 | NCCc1c[nH]c2ccc(O)cc12 [[3H]-5-HT] | 1.66
